Protein sequences, listed by entry. Tags and fused reporters are not part of them. Residues count along the entry.
UniProt Q03145, 26-538: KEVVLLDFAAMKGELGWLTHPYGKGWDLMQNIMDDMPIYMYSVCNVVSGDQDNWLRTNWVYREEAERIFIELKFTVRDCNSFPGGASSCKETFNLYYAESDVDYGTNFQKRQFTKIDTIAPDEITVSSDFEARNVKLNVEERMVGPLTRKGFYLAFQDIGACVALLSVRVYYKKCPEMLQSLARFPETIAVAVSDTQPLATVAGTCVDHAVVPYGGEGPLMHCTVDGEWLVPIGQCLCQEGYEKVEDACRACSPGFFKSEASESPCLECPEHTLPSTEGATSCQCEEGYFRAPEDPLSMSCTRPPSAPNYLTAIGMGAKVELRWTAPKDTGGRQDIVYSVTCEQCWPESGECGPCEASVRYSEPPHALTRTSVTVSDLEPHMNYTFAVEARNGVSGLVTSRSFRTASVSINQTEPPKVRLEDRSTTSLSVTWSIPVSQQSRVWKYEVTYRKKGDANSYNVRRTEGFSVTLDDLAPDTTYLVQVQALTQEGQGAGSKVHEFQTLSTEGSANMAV

In patent publication US20260124312A1 (Bicycle, published 2026):

Experiments:
[1] = target: Rat EphA2 (ligand binding), C-terminal polyHis (Rat); experiment: FP direct binding, selectivity
Procedure: (§1) Peptides with a fluorescent tag (either fluorescein, SIGMA or Alexa Fluor488™, Fisher Scientific) were diluted to 2.5 nM in PBS with 0.01% tween 20 or 50 mM HEPES with 100 mM NaCl and 0.01% tween pH 7.4 (both referred to as assay buffer). This was combined with a titration of protein in the same assay buffer as the peptide to give 1 nM peptide in a total volume of 25 μL in a black walled and bottomed low bind low volume 384 well plates, typically 5 μL assay buffer, 10 μL protein (Table 1) then 10 μL fluorescent peptide. […] The gain used for analysis was determined for each tracer at the end of the 60 minutes where there was no protein in the well. […] “Lig” was a defined value of the concentration of tracer used.

Mouse EphA2 (Ecto) = target: T1, Mouse EphA2 (Ecto) (Mouse, UniProt Q03145 26-538); experiment: FP direct binding, selectivity
T1 construct: extracellular domain
Procedure: as §1

| Kd [1] | Kd (Mouse EphA2 (Ecto)) | Binder |
| --- | --- | --- |
| 210 nM | – | ACVPDRRCAYMNVCA (C-terminal Sar6-K(Fl); three Cys bound to TATA) [Bicycle Compound 2] |
| 252 nM | 216 nM | ACYVGKECAYMNVCA (C-terminal Sar6-K(Fl); three Cys bound to TATA) [Bicycle Compound 7] |
